Experiment [1] is filed under the species Homo sapiens. Description: Selectivity for human NOP receptor to human MOP receptor.
The target of experiment [2] is Nociceptin receptor (Homo sapiens) (UniProt P41146). Description: Agonist activity at human NOP receptor expressed in CHO cells assessed as inhibition of forskolin-stimulated cAMP production after 2 hrs relative to nociceptin. Details: scale not given: the % may be the effect or the level left.

Protein sequences, listed by entry. Tags and fused reporters are not part of them. Lines headed by an entry give the natural chain unless they say otherwise; changes in a name come on top.
UniProt P41146: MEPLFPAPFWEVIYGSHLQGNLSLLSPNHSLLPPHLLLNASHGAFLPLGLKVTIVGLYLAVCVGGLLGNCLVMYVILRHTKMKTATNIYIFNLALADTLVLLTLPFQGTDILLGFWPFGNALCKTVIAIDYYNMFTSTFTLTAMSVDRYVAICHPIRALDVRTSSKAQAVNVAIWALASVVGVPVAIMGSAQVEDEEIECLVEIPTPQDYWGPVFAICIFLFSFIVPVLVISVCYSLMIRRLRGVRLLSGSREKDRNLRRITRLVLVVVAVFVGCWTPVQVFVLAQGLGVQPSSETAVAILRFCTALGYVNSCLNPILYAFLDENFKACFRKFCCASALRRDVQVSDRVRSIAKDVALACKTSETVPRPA

Turning to `CNC(=O)CN1Cc2ccccc2N(C2CCN(C3CCCCCCCCC3)CC2)S1(=O)=O`, the Ratio Ki in experiment [1] was 3.7.

Turning to `CNC(=O)CN1C(=O)OC2(CCN(C3CCC(C(C)C)CC3)CC2)c2ccccc21` (configuration not stated), the Activity in experiment [2] turned out to be 78%. For the same compound, the Ratio Ki in experiment [1] is 1.

`CNC(=O)Cn1c(=O)n(C2CCN(CC3CCCCC3)CC2)c2ccccc21`: the Ratio Ki in experiment [1] worked out at 7.3.

`CNC(=O)CN1C(=O)OC2(CCN(C3CCC(C(C)(C)C)CC3)CC2)c2ccccc21` (configuration not stated): the Ratio Ki in experiment [1] was 0.4.

For `CNC(=O)Cn1c(=O)n(C2CCN([C@H]3CC[C@H](C(C)C)CC3)CC2)c2ccccc21`, the Ratio Ki in experiment [1] worked out at 1.

In the case of `CNC(=O)Cn1c(=O)n(C2CCN(Cc3ccc(C)c4ccccc34)CC2)c2ccccc21`, the Ratio Ki in experiment [1] is 51.

Consider `CNC(=O)Cn1c(=O)n(C2CCN(C3CCCCCC3)CC2)c2ccccc21`, for which, in experiment [1], the Ratio Ki came out at 51.

In the case of `CNC(=O)CN1Cc2ccccc2N(C2CCN(Cc3ccc(C)c4ccccc34)CC2)C1=O`, the Ratio Ki in experiment [1] is 0.9.

In the case of `CNC(=O)CN1Cc2ccccc2N(C2CCN(C3CCC4CCCCC4C3)CC2)S1(=O)=O` (configuration not stated), the Activity in experiment [2] came out at 84%. In experiment [1], the Ratio Ki turned out to be 2.8.

On to `CNC(=O)CN1c2ccccc2N(C2CCN(C3CCC4CCCCC4C3)CC2)S1(=O)=O` (configuration not stated), for which the Activity in experiment [2] is 104%. For the same compound, in experiment [1], the Ratio Ki turned out to be 38.

On to `CNC(=O)Cn1c(=O)n(C2CCN(Cc3ccccc3-c3ccccc3)CC2)c2ccccc21`, for which the Ratio Ki in experiment [1] was found to be 0.2.

`CNC(=O)CN1c2ccccc2N(C2CCN(C3CCCCCC3)CC2)S1(=O)=O`: the Activity in experiment [2] was 81%. In experiment [1], the Ratio Ki turned out to be 29.

For `CNC(=O)CN1c2ccccc2N(C2CCN(C3CCC(C(C)C)CC3)CC2)S1(=O)=O` (configuration not stated), the Activity in experiment [2] is 110%. In addition, the Ratio Ki in experiment [1] was 54.

In the case of `CNC(=O)Cn1c(=O)n(C2CCN(C3CCC4CCCCC4C3)CC2)c2ccccc21` (configuration not stated), the Ratio Ki in experiment [1] came out at 36.

`CNC(=O)CN1N=C(c2ccccc2)C2(CCN(C3CCC4CCCCC4C3)CC2)C1=O` (configuration not stated): in experiment [2], the Activity was determined as 74%. In experiment [1], the Ratio Ki stood at 0.8.

`CNC(=O)CN1N=C(c2ccccc2)C2(CCN(C3CCCCCCCCC3)CC2)C1=O`: the Activity in experiment [2] turned out to be 81%. The Ratio Ki in experiment [1] worked out at 0.5.

As to `CNC(=O)CN1C(=O)OC2(CCN(C3CCCCCC3)CC2)c2ccccc21`, the Ratio Ki in experiment [1] stood at 0.2.

`CNC(=O)Cn1c(=O)n(C2CCN(C3CCCCCCCCC3)CC2)c2ccccc21`: the Ratio Ki in experiment [1] is 55.

Turning to `CNC(=O)Cn1c(=O)n(C2CCN(Cc3ccc(OC)c4ccccc34)CC2)c2ccccc21`, in experiment [1], the Ratio Ki was found to be 6.7.

Take `CNC(=O)CN1Cc2ccccc2N(C2CCN(C3CCC(C(C)C)CC3)CC2)S1(=O)=O` (configuration not stated): the Activity in experiment [2] was 95%. In experiment [1], the Ratio Ki amounted to 4.1.

`CNC(=O)Cn1c(=O)n(C2CCN([C@H]3CC[C@@H](C(C)C)CC3)CC2)c2ccccc21`: the Ratio Ki in experiment [1] worked out at 99.

Turning to `CNC(=O)Cn1c(=O)n(C2CCN(C3CCCCCCC3)CC2)c2ccccc21`, in experiment [1], the Ratio Ki amounted to 41.

With `CNC(=O)Cn1c(=O)n(C2CCN(C3CCC(C(C)(C)C)CC3)CC2)c2ccccc21` (configuration not stated), the Ratio Ki in experiment [1] was 14.

`CNC(=O)Cn1c(=O)n(C2CCN(Cc3cccc4ccccc34)CC2)c2ccccc21`: the Ratio Ki in experiment [1] came to 2.3.

`CNC(=O)Cn1c(=O)n(C2CCN(C3CCCC3(C)C)CC2)c2ccccc21` (configuration not stated): the Ratio Ki in experiment [1] was determined as 5.6.

For the compound `CNC(=O)CN1N=C(c2ccccc2)C2(CCN(C3CCC(C(C)C)CC3)CC2)C1=O` (configuration not stated), in experiment [2], the Activity turned out to be 75%. The Ratio Ki in experiment [1] is 0.5.

Turning to `CNC(=O)CN1c2ccccc2N(C2CCN(C3CCCCCCCCC3)CC2)S1(=O)=O`, the Activity in experiment [2] was 104%. For the same compound, the Ratio Ki in experiment [1] is 43.

As to `CNC(=O)CN1C(=O)OC2(CCN(C3CCCCCCCCC3)CC2)c2ccccc21`, the Activity in experiment [2] was 82%. The Ratio Ki in experiment [1] amounted to 1.

Take `CNC(=O)Cn1c(=O)n(C2CCN(C3CCC(C)(C)CC3)CC2)c2ccccc21`: the Ratio Ki in experiment [1] worked out at 54.

Take `CNC(=O)Cn1c(=O)n(C2CCN(C3CCC(C(C)C)CC3)CC2)c2ccccc21` (configuration not stated): the Ratio Ki in experiment [1] amounted to 118.

As for `CNC(=O)Cn1c(=O)n(C2CCN(C3CCCC4(CCCCC4)C3)CC2)c2ccccc21` (configuration not stated), the Ratio Ki in experiment [1] worked out at 26.

As for `CNC(=O)Cn1c(=O)n(C2CCN(C3CCC(C)(C)CC3(C)C)CC2)c2ccccc21` (configuration not stated), the Ratio Ki in experiment [1] amounted to 10.

For the compound `CNC(=O)CN1N=C(c2ccccc2)C2(CCN(C3CCC(C(C)(C)C)CC3)CC2)C1=O` (configuration not stated), the Activity in experiment [2] was 109%. Besides, in experiment [1], the Ratio Ki came to 0.2.

As for `CNC(=O)Cn1c(=O)n(C2CCN(CCC(C)(C)C)CC2)c2ccccc21`, the Ratio Ki in experiment [1] turned out to be 15.

For `CNC(=O)CN1Cc2ccccc2N(C2CCN(C3CCC(C(C)C)CC3)CC2)C1=O` (configuration not stated), the Ratio Ki in experiment [1] worked out at 1.

Source of the values: ChEMBL document CHEMBL1154346 (Bioorg Med Chem Lett, 2009).
